This note sets out measurements from IntAct's records for PubMed 21256037.

First the molecules themselves.
B1: Histone acetyltransferase RTT109 (Saccharomyces cerevisiae), Q07794 (parent)
chain: MSLNDFLSSVLPVSEQFEYLSLQSIPLETHAVVTPNKDDKRVPKSTIKTQHFFSLFHQGKVFFSLEVYVYVTLWDEADAERLIFVSKADTNGYCNTRVSVRDITKIILEFILSIDPNYYLQKVKPAIRSYKKISPELISAASTPARTLRILARRLKQSGSTVLKEIESPRFQQDLYLSFTCPREILTKICLFTRPASQYLFPDSSKNSKKHILNGEELMKWWGFILDRLLIECFQNDTQAKLRIPGEDPARVRSYLRGMKYPLWQVGDIFTSKENSLAVYNIPLFPDDPKARFIHQLAEEDRLLKVSLSSFWIELQERQEFKLSVTSSVMGISGYSLATPSLFPSSADVIVPKSRKQFRAIKKYITGEEYDTEEGAIEAFTNIRDFLLLRMATNLQSLTGKREHRERNQPVPASNINTLAITMLKPRKKAKALPKT
B2: Vacuolar protein sorting-associated protein 75 (Saccharomyces cerevisiae), P53853 (parent)
chain: MMSDQENENEHAKAFLGLAKCEEEVDAIEREVELYRLNKMKPVYEKRDAYIDEIAEFWKIVLSQHVSFANYIRASDFKYIDTIDKIKVEWLALESEMYDTRDFSITFHFHGIEGDFKEQQVTKVFQIKKGKDDQEDGILTSEPVPIEWPQSYDSINPDLIKDKRSPEGKKKYRQGMKTIFGWFRWTGLKPGKEFPHGDSLASLFSEEIYPFCVKYYAEAQRDLEDEEGESGLSADGDSEDDDGSLGEVDLPLSDEEPSSKKRKV

The variants in one experiment derive from B1. Particulars: with vps75_yeast VPS75, P53853.
With MSLNDFLSSVLPVSEQFEYLSLQSIPLETHAVVTPNKDDKRVPKSTIKTQHFFSLFHQGKVFFSLEVYVYVTLWDEADAERLIFVSKADTNGYCNTRVSVRDITKIILEFILSIDPNYYLQKVKPAIRSYKKISPELISAASTPARTLRDDARRLKQSGSTVLKEIESPRFQQDLYLSFTCPREILTKICLFTRPASQYLFPDSSKNSKKHILNGEELMKWWGFILDRLLIECFQNDTQAKLRIPGEDPARVRSYLRGMKYPLWQVGDIFTSKENSLAVYNIPLFPDDPKARFIHQLAEEDRLLKVSLSSFWIELQERQEFKLSVTSSVMGISGYSLATPSLFPSSADVIVPKSRKQFRAIKKYITGEEYDTEEGAIEAFTNIRDFLLLRMATNLQSLTGKREHRERNQPVPASNINTLAITMLKPRKKAKALPKT [I150D;L151D], the “effect of a mutation on the interaction” value is on record as “disrupting interaction”.
The same measure, in the same setting: the entry for MSLNDFLSSVLPVSEQFEYLSLQSIPLETHAVVTPNKDDKRVPKSTIKTQHFFSLFHQGKVFFSLEVYVYVTLWDEADAERLIFVSKADTNGYCNTRVSVRDITKIILEFILSIDPNYYLQKVKPAIRSYKKISPELISAASTPARTLRILARRLKQSGSTVLKEIESPRFQQDLYLSFTCPREILTKICLFTRPASQYLFPDSSKNSKKHILNGEELMKWWGFILDRLLIECFQNDTQAKLRIPGEDPARVRSYLRGMKYPLWQVGDIFTSKENSLAVYNIPLFPDDPKARFIHQLAEEDRLLKVSLSSFWIELQERQEFKLSVTSSVMGISGYSLATPSLFPSSADVIVPKSEEQFRAIKKYITGEEYDTEEGAIEAFTNIRDFLLLRMATNLQSLTGKREHRERNQPVPASNINTLAITMLKPRKKAKALPKT [R355E;K356E] is “decreasing interaction”; for MSLNDFLSSVLPVSEQFEYLSLQSIPLETHAVVTPNKDDKRVPKSTIKTQHFFSLFHQGKVFFSLEVYVYVTLWDEADAERLIFVSKADTNGYCNTRVSVRDITKIILEFILSIDPNYYLQKVKPAIRSYKKISPELISAASTPARTDRDDARRLKQSGSTVLKEIESPRFQQDLYLSFTCPREILTKICLFTRPASQYLFPDSSKNSKKHILNGEELMKWWGFILDRLLIECFQNDTQAKLRIPGEDPARVRSYLRGMKYPLWQVGDIFTSKENSLAVYNIPLFPDDPKARFIHQLAEEDRLLKVSLSSFWIELQERQEFKLSVTSSVMGISGYSLATPSLFPSSADVIVPKSRKQFRAIKKYITGEEYDTEEGAIEAFTNIRDFLLLRMATNLQSLTGKREHRERNQPVPASNINTLAITMLKPRKKAKALPKT [L148D;I150D;L151D] it is “disrupting interaction”.

The variants in a further experiment derive from B1. Particulars: with vps75_yeast VPS75, P53853. The source holds these as a separate data set.
In the case of MSLNDFLSSVLPVSEQFEYLSLQSIPLETHAVVTPNKDDKRVPKSTIKTQHFFSLFHQGKVFFSLEVYVYVTLWDEADAERLIFVSKADTNGYCNTRVSVRDITKIILEFILSIDPNYYLQKVKPAIRSYKKISPELISAASTPARTLRILARRLKQSGSTVLKEIESPRFQQDLYLSFTCPREILTKICLFTRPASQYLFPDSSKNSKKHILNGEELMKWWGFILDRLLIECFQNDTQAKLRIPGEDPARVRSYLRGMKYPLWQVGDIFTSKENSLAVYNIPLFPDDPKARFIHQLAEEDRLLKVSLSSFWIELQERQEFKLSVTSSVMGISGYSLATPSLFPSSADVIVPKSRKQFRAIKKYITGEEYDTEEGAIRAFTRIRDFLLLRMATNLQSLTGKREHRERNQPVPASNINTLAITMLKPRKKAKALPKT [E378R;N382R], the “effect of a mutation on the interaction” value is listed as “decreasing interaction”.
The same measure, in the same setting: the entry for MSLNDFLSSVLPVSEQFEYLSLQSIPLETHAVVTPNKDDKRVPKSTIKTQHFFSLFHQGKVFFSLEVYVYVTLWDEADAERLIFVSKADTNGYCNTRVSVRDITKIILEFILSIDPNYYLQKVKPAIRSYKKISPELISAASTPARTDRILARRLKQSGSTVLKEIESPRFQQDLYLSFTCPREILTKICLFTRPASQYLFPDSSKNSKKHILNGEELMKWWGFILDRLLIECFQNDTQAKLRIPGEDPARVRSYLRGMKYPLWQVGDIFTSKENSLAVYNIPLFPDDPKARFIHQLAEEDRLLKVSLSSFWIELQERQEFKLSVTSSVMGISGYSLATPSLFPSSADVIVPKSRKQFRAIKKYITGEEYDTEEGAIEAFTNIRDFLLLRMATNLQSLTGKREHRERNQPVPASNINTLAITMLKPRKKAKALPKT [L148D] is “disrupting interaction”.

Variants of B2 are the subject of a further experiment. The settings on record: with rt109_yeast RTT109, Q07794.
With MMSDQENENEHAKAFLGLDKCEEEVDAIEREVELYRLNKMKPVYEKRDAYIDEIAEFWKIVLSQHVSFANYIRASDFKYIDTIDKIKVEWLALESEMYDTRDFSITFHFHGIEGDFKEQQVTKVFQIKKGKDDQEDGILTSEPVPIEWPQSYDSINPDLIKDKRSPEGKKKYRQGMKTIFGWFRWTGLKPGKEFPHGDSLASLFSEEIYPFCVKYYAEAQRDLEDEEGESGLSADGDSEDDDGSLGEVDLPLSDEEPSSKKRKV [A19D], the “effect of a mutation on the interaction” value is on record as “decreasing interaction”.
Same read-out and setting: the entry for MMSDQENENEHAKAFLGLAKCEEEVDAIEREVELYRLNKMKPVYEKRDAYIDEIAEFWKIVLSQHVSFANYIRASDFKYIDTIDKIKVEWLALESEMYDTRDFSITFHFHGIEGDFKEQQVTKVFQIKKGKDDQEDGILTSEPVPIEWPQSYDSINPDLIKDKRSPEGKKKYRQGMKTIFGWFRWTGLKPGKEFPHGDSLASLFSEEIYPFCVKYYAKAQRKLEDEEGESGLSADGDSEDDDGSLGEVDLPLSDEEPSSKKRKV [E218K;D222K] is “disrupting interaction”.
On the same count and under the same terms, the entry for MMSDQENENEHAKAFLGLAKCEEEVDAIEREVELYRLNKMKPVYEKRDAYIDEIAEFWKIVLSQHVSFANYIDDSDFKYIDTIDKIKVEWLALESEMYDTRDFSITFHFHGIEGDFKEQQVTKVFQIKKGKDDQEDGILTSEPVPIEWPQSYDSINPDLIKDKRSPEGKKKYRQGMKTIFGWFRWTGLKPGKEFPHGDSLASLFSEEIYPFCVKYYAEAQRDLEDEEGESGLSADGDSEDDDGSLGEVDLPLSDEEPSSKKRKV [R73D;A74D] is “disrupting interaction”; for MMSDQENENEHAKAFLGLAKCEEEVDAIEREVELYRLNKMKPVYEKRDAYIDEIAEFWKIVLSQHVSFANYIRASDFKYIDTIDKIKVEWLALESEMYDTRDFSITFHFHGIEGDFKEQQVTKVFQIKKGKDDQEDGILTSEPVPIEWPQSYDSINPDLIKDKRSPEGKKKYEQGMETIFGWFRWTGLKPGKEFPHGDSLASLFSEEIYPFCVKYYAEAQRDLEDEEGESGLSADGDSEDDDGSLGEVDLPLSDEEPSSKKRKV [R173E;K177E] it is “decreasing interaction”; for MMSDQENENEHAKAFLGLAKEEEESDAEEREEELYRLNKMKPVYEKRDAYIDEIAEFWKIVLSQHVSFANYIRASDFKYIDTIDKIKVEWLALESEMYDTRDFSITFHFHGIEGDFKEQQVTKVFQIKKGKDDQEDGILTSEPVPIEWPQSYDSINPDLIKDKRSPEGKKKYRQGMKTIFGWFRWTGLKPGKEFPHGDSLASLFSEEIYPFCVKYYAEAQRDLEDEEGESGLSADGDSEDDDGSLGEVDLPLSDEEPSSKKRKV [C21E;V25S;I28E;V32E] it is “disrupting interaction”.

The variants in a further experiment derive from B2. The settings on record: with rt109_yeast RTT109, Q07794. This is another data set of the same source.
MMSDQENENEHAKAFLGLAKCEEEVDAIEREVELYRLNKMKPVYEKRDAYIDEIAEFWKIVLSQHVSFANYIRASDFKYIDTIDKIKVEWLALESEMYDTRDFSITFHFHGIEGDFKEQQVTKVFQIKKGKDDQEDGILTSEPVPIEWPQSYDSINPDLIKDKRSPEGKKKYRQGMKTIFGWFRWTGLKPGKEFPHGDSLASLFSEEIYPFCVKYYAKAQRKLEDEEGESGLSADGDSEDDDGSLGEVDLPLSDEEPSSKKRKV [E218K;D222K]: the “effect of a mutation on the interaction” value is “decreasing interaction”.
